Test results taken from ChEMBL document CHEMBL5729261, “AMPK activators” (2022).

Sequences of proteins named here, by UniProt entry; tags and fusion partners are left off. A change or cut given only in a name is not applied to a line headed by its entry.
UniProt P54619: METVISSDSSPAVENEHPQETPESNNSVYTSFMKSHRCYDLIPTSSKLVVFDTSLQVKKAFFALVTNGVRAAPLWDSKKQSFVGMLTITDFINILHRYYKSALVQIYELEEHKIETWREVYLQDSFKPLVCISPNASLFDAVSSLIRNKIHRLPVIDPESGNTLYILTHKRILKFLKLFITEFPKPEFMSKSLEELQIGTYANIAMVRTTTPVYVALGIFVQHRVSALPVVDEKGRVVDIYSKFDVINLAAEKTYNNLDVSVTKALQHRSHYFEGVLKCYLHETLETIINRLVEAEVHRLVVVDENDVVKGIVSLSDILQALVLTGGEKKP
UniProt Q13131: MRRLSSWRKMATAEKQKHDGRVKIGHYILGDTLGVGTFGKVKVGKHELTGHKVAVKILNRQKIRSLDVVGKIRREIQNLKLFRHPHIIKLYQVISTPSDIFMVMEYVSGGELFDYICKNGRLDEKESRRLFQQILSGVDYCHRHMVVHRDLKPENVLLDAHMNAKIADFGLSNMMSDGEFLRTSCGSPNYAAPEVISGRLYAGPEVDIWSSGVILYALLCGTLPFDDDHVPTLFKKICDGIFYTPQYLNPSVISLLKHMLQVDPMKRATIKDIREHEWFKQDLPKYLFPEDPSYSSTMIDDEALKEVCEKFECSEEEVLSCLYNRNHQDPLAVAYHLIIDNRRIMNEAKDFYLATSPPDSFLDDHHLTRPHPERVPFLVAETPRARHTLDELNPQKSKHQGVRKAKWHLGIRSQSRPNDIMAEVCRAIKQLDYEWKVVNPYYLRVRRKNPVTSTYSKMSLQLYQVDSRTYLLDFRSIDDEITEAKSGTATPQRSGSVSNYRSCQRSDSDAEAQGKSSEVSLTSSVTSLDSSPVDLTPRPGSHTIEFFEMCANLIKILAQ
UniProt Q9Y478: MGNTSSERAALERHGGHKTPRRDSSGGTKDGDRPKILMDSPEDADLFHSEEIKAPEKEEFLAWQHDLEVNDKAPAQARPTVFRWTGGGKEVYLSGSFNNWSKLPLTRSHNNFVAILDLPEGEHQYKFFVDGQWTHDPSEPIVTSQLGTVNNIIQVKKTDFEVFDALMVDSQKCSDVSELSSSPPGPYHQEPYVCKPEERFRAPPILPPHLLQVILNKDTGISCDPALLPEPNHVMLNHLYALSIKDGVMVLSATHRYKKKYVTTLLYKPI

Molecular target: AMP-activated protein kinase (AMPK) alpha-1/beta-1/gamma-1 (Homo sapiens, UniProt P54619+Q13131+Q9Y478)
Assay: In Vitro pAMPK1 Kinase Activation Assay: Compound effect on AMPK enzyme activation was determined in a cell-free format with a 12-point concentration curve. The ADP-Glo detection system was used to determine phosphorylation of a SAMS peptide substrate. Recombinant AMPK α1/β1/γ1 complex was pre-activated by phosphorylation with CAMKK2 followed by incubated with compound for 15 minutes prior to the SAMS phosphorylation reaction. Activity curves and EC50 values were fitted by interpolation to an ATP:ADP standard curve as indicated by the ADP-Glo manufacturer using Prism software.
Format: protein-complex assay

`NC(=O)CN(CCS(=O)(=O)O)C(=O)c1ccc(-c2ccc(-c3nc4nc(O[C@@H]5CO[C@H]6[C@@H]5OC[C@H]6O)[nH]c4cc3Cl)cc2)cc1` was tested, and the EC50 was 1.61 nM.
